Values quoted from earlier work in US10537521B2 (priority 2016, dated 2020).

By UniProt entry, the sequences of proteins in these tests, tags left out.
UniProt P35372, whole entry: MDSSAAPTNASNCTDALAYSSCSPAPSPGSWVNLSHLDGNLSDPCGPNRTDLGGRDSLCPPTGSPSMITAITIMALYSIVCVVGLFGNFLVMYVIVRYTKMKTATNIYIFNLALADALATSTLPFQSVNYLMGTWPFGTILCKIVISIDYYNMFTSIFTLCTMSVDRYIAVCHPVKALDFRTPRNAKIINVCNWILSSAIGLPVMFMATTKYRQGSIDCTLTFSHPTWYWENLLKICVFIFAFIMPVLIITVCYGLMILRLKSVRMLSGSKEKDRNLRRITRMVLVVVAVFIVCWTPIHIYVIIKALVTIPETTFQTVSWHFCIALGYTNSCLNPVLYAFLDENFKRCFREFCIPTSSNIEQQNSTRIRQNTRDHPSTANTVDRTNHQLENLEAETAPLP

Tests used:
μ-opioid [1] = target: T1, μ-opioid (Homo sapiens, UniProt P35372); conditions: cited from earlier work
μ-opioid [2] = target: T1, μ-opioid; conditions: cited from earlier work; remark: listed apart in the source

## COc1cccc([C@@]2(O)CCCC[C@@H]2CN(C)C)c1 [(+)-Tramadol]
μ-opioid [1]
  μ-opioid activity: weak μ-opioid activity

## CN(C)C[C@H]1CCCC[C@]1(O)c1cccc(O)c1 [O-desmethyltramadol]
μ-opioid [2]
  affinity to the μ opioid receptor compared with tramadol: higher affinity
